This note sets out measurements from US5596072.

Assay [1] deals with hIL-4R-S protein on Ba/F3 cells (hIL-4R ligand-binding protein deleted for most of the intracellular domain) (human) (UniProt P24394). The assay can be described thus: displacement of I^125-hIL-4 from Ba/F3 hIL-4R-S cells.
For assay [2], the target named is functional human IL-4 receptor (hIL-4R) on TF-1 cells (human) (UniProt P24394). Description: competitive displacement of I^125-hIL-4 from TF-1 cells.
Assay [3] addresses hIL-4R-S protein on Ba/F3 cells (hIL-4R ligand-binding protein deleted for most of the intracellular domain) (human) (UniProt P24394). Description: displacement of I^125-hIL-4 from Ba/F3 hIL-4R-S cells, Ligand computer program.
Assay [4] deals with functional human IL-4 receptor (hIL-4R) on TF-1 cells (human) (UniProt P24394). Description: competitive displacement of I^125-hIL-4, TF-1 against Ba/F3 hIL-4R-S cells.
The target is the same in assay [5]. The assay can be described thus: displacement of I^125-hIL-4 from TF-1 cells.

Usually Kd stands for the concentration at which binding is half-saturated. Read a high Kd as lower affinity. With “hIL-4.Y124D (hIL-4.Tyr124 to Asp) (from UniProt P05112) (ligand)”, in assay [1], the fold less avid binding than hIL-4 is 3.5 fold. The substance further returned a fold lower affinity than hIL-4 in assay [2] of 50 fold. In addition, the dissociation constant (Kd) in assay [3] was determined as 0.62 nM.

For orientation: IC50 means the point on the concentration scale where inhibition reaches its midpoint. For “human interleukin-4 (hIL-4) (from UniProt P05112) (ligand)”, the fold higher apparent affinity than for Ba/F3 hIL-4R-S cells in assay [4] stood at 50 fold. For the same substance, the IC50 was 0.2 nM in assay [1] and 2 pM in assay [5]. Moreover, the dissociation constant Kd in assay [3] turned out to be 0.16 nM.
